{"sequences": {"note": "The chains behind the UniProt entries cited, without tags or fusion partners. Where a name states a change or a piece, a line headed by the entry shows the natural chain unless it says otherwise.", "UniProt P08473": "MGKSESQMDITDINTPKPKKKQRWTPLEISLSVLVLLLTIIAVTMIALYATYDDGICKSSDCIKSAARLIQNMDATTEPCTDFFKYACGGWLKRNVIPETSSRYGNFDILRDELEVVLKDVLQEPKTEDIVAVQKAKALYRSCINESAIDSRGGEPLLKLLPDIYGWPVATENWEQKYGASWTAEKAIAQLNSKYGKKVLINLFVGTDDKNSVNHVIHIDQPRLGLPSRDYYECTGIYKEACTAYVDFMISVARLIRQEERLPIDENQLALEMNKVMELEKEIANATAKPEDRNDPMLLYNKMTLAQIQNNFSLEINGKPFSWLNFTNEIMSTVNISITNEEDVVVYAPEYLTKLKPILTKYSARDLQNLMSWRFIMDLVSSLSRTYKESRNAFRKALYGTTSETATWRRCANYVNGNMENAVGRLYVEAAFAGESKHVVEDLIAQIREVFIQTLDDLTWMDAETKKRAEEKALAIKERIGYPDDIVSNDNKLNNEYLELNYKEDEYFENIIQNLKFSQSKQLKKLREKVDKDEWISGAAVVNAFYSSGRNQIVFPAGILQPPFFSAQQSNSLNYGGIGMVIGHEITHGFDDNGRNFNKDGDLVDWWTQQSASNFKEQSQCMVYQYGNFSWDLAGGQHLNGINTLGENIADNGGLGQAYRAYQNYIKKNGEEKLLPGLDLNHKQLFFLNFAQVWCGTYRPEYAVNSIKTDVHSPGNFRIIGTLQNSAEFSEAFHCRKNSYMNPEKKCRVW"}, "source": "patent US5665704A", "about": "“Receptor specific atrial natriuretic peptides” (Genentech, Inc., priority 1995, dated 1997)", "biological_target": "Human endopeptidase 24.11 (hNEP) (Homo sapiens, UniProt P08473)", "assay": "in vitro", "conditions": "isolated enzyme", "data": [{"smiles": "CC[C@H](C)[C@@H]1NC(=O)[C@H](CCCN=C(N)N)NC(=O)[C@H](CC(=O)O)NC(=O)[C@H]([C@@H](C)CC)NC(=O)[C@H](CCCN=C(N)N)NC(=O)CNC(=O)CNC(=O)[C@H](Cc2ccccc2)NC(=O)[C@@H](NC(=O)[C@H](CO)NC(=O)[C@H](CO)NC(=O)[C@H](CCCN=C(N)N)NC(=O)[C@H](CCCN=C(N)N)NC(=O)[C@H](CC(C)C)NC(=O)[C@@H](N)CO)CSSC[C@@H](C(=O)N[C@@H](CC(N)=O)C(=O)N[C@@H](CO)C(=O)N[C@@H](Cc2ccccc2)C(=O)N[C@@H](CCCN=C(N)N)C(=O)N[C@@H](Cc2ccc(O)cc2)C(=O)O)NC(=O)CNC(=O)[C@H](CC(C)C)NC(=O)CNC(=O)[C@H](CO)NC(=O)[C@H](CCC(N)=O)NC(=O)[C@H](C)NC(=O)CNC1=O", "note": "[ANF15, reference compound]", "values": [{"measurement": "half-life at 0.5 mg/ml", "result": 165, "unit": "min"}]}]}
